{"source": "patent EP4825843A1", "about": "“IMIDAZOLE LIPID AND USE THEREOF” (dated 2026)", "key": {"[1]": {"tested_on": "A549 cells (human non-small cell lung cancer cells)", "experiment": "Non-immune cell in vitro transfection efficiency (luciferase mRNA LNP, fluorescence intensity)", "conditions": "for Mean fluorescence intensity (p/s): LNP composition with luciferase mRNA, 24 h of incubation; for Relative fluorescence intensity: comparative compound 2 taken as a unit 1", "procedure": "(§1) Non-immune cells such as A549 cells (human non-small cell lung cancer cells) and immune cells such as Jurkat cells (human T cells) (from ATCC) were cultured in 96-well plates, respectively. The lipid nanoparticle compositions in which the luciferase mRNA (luciferase, GenBank: MN728548.1) was encapsulated were added to the cell well plates. After 24 h of incubation, the luciferase substrate (D-luciferin potassium salt, Cat. No. abs42075819) was added, and the fluorescence intensity was measured using a microplate reader. The fluorescence intensity indicates the level of luciferase protein expression, i.e., the delivery efficiency of the lipid nanoparticles corresponding to the compounds on different cells."}, "[2]": {"experiment": "Size and polydispersity index of lipid nanoparticles by dynamic light scattering (Malvern Zetasizer Pro)", "conditions": "lipid nanoparticle composition (lipid:DSPC:cholesterol:DMG-PEG 50:10:38.5:1.5) encapsulating luciferase mRNA", "procedure": "(§2) Compounds 1, 2, and 3 and comparative compounds 1, 2, and 3 were each dissolved in an ethanol solution, and each of the resulting solutions was mixed with solutions of DSPC, cholesterol, and DMG-PEG in ethanol in a molar percent (mol %) ratio of 50:10:38.5:1.5 to prepare an ethanol lipid solution. mRNA (luciferase, GenBank: MN728548.1) was dissolved in a 50 mM acetic acid buffer (pH 5) to prepare an aqueous mRNA solution (0.2 mg/mL). Each of the ethanol lipid solutions was mixed with the aqueous mRNA solution by microfluidics, with the volume ratio of the ethanol phase to the aqueous phase being 1:3 and the weight ratio of total lipids to mRNA being about 20:1, to prepare liposomes. Ethanol was removed by dialysis against a 20 mM Tris solution (pH 7.5). Finally, each solution was exchanged into a 20 mM Tris, 8% sucrose solution, and the resulting solutions were cryopreserved to obtain lipid nanoparticle compositions in which mRNA was encapsulated.\nThe size and polydispersity index (PDI) of the lipid nanoparticles were determined using a Malvern Zetasizer Pro in a 173° backscatter detection mode and dynamic light scattering."}, "[3]": {"experiment": "Liposome encapsulation efficiency, Quant-iT RiboGreen RNA assay kit", "conditions": "lipid nanoparticle composition encapsulating luciferase mRNA", "procedure": "as §2\nThe liposome encapsulation efficiency was determined using a Quant-iT RiboGreen RNA assay kit."}, "[4]": {"tested_on": "Jurkat cells (human T cells)", "experiment": "Immune cell in vitro transfection efficiency (luciferase mRNA LNP, fluorescence intensity)", "conditions": "for Fluorescence intensity relative to that of the lipid nanoparticle composition corresponding to comparative compound 2: immune cells; for Mean fluorescence intensity (p/s) / Relative fluorescence intensity: immune cells (Jurkat); for Mean fluorescence intensity (p/s): LNP composition with luciferase mRNA, 24 h of incubation; for Relative fluorescence intensity: comparative compound 2 taken as a unit 1", "procedure": "as §1"}, "Liver": {"tested_on": "Liver", "experiment": "Expression level of luciferase mRNA delivered by tail vein injection in tissues, IVIS imaging", "conditions": "luciferase mRNA LNP, tail vein injection 0.5 mg/kg, 6 h after administration; comparative compound 1 taken as a unit 1", "procedure": "(§3) Lipid nanoparticle compositions in which a luciferase-expressing mRNA (luciferase, GenBank: MN728548.1) was encapsulated (prepared according to the preparation method in Example 5) were administered to female Balb/c mice aged 6-8 weeks by tail vein injection at a dose of 0.5 mg/kg. Six hours after administration, the luciferase substrate (D-luciferin potassium salt, Cat. No. abs42075819) was injected intraperitoneally into each mouse. The mice were dissected, their livers and spleens were collected and photographed using an IVIS small-animal optical in vivo imaging system (PerkinElmer), and the fluorescence intensity of each tissue was measured. For the lipid nanoparticle composition corresponding to each compound, at least 3 biological replicates were set, and the mean fluorescence intensity was calculated. The fluorescence intensity indicates the level of luciferase protein expression. The relative fluorescence intensities, i.e., relative protein expression levels, of compounds 1, 2, and 3 and comparative compounds 1 and 3 were calculated with the fluorescence intensity of the lipid nanoparticle composition corresponding to comparative compound 1 taken as a unit 1. For example, the ratio of the tissue fluorescence intensity of compound 1 to the tissue fluorescence intensity of comparative compound 1 is the relative protein expression level of compound 1.\n(§4) 10 and 11, the relative protein expression levels were calculated using the measured fluorescence intensities corresponding to the spleens and livers of the mice that were photographed using an IVIS small-animal optical in vivo imaging system. They measured how efficiently the lipid nanoparticle compositions delivered mRNA in cells of different tissues. In FIGs. […]"}, "Spleen": {"tested_on": "Spleen", "experiment": "Expression level of luciferase mRNA delivered by tail vein injection in tissues, IVIS imaging", "conditions": "luciferase mRNA LNP, tail vein injection 0.5 mg/kg, 6 h after administration; comparative compound 1 taken as a unit 1", "procedure": "as §3, §4"}, "T cells": {"tested_on": "T cells", "experiment": "In vivo Cre mRNA delivery efficiency in immune cells after tail vein injection, flow cytometry of spleen cells", "conditions": "Cre mRNA LNP, tail vein injection 0.5 mg/kg, 48 h after administration, tdTomato positive", "procedure": "(§5) Lipid nanoparticle compositions in which a Cre-expressing recombinant mRNA (GenBank: JQ033384.1) was encapsulated (prepared according to the preparation method in Example 5) were administered to male CAG-LSL-tdTomato model mice aged 6-8 weeks (Shanghai Model Organisms Center, Inc.) by tail vein injection at a dose of 0.5 mg/kg. If the Cre mRNA was delivered into cells in the mice, it would edit the genes of the mice to enable the expression of the tdTomato fluorescent protein. Therefore, the in vivo delivery efficiency of the lipid nanoparticle compositions in different cells can be determined by detecting fluorescence signals of the tdTomato protein and analyzing the proportion of positive cells. Forty-eight hours after administration, the mice were dissected, and their spleens were collected and ground. After lysis of red blood cells, single-cell suspensions were prepared, with cells resuspended in a PBS buffer (pH 7.4). Different immune cells were labeled with fluorescently labeled antibodies (BioLegend), respectively. The cells were divided into populations using a flow cytometer, and the proportion of positive cells (with tdTomato fluorescence signals) in a corresponding cell population was determined, reflecting the delivery efficiency of the nanoparticle lipid compositions in the corresponding immune cells. The blank control group was injected with an equal volume of PBS.\n(§6) For the lipid nanoparticle composition corresponding to each compound, at least 3 biological replicates were set, and the mean percentage was calculated. 5 to 9.\n(§7) With the lipid nanoparticle composition corresponding to comparative compound 1 and the blank control group as controls, the in vivo mRNA delivery efficiency of the tail vein injection of the lipid nanoparticle composition corresponding to compound 1 into mice in immune cells was determined. Table 4. In vivo delivery efficiency in immune cells"}, "NK cells": {"tested_on": "NK cells", "experiment": "In vivo Cre mRNA delivery efficiency in immune cells after tail vein injection, flow cytometry of spleen cells", "conditions": "Cre mRNA LNP, tail vein injection 0.5 mg/kg, 48 h after administration, tdTomato positive", "procedure": "as §5, §6, §7"}, "Dendritic cells": {"tested_on": "Dendritic cells", "experiment": "In vivo Cre mRNA delivery efficiency in immune cells after tail vein injection, flow cytometry of spleen cells", "conditions": "Cre mRNA LNP, tail vein injection 0.5 mg/kg, 48 h after administration, tdTomato positive", "procedure": "as §5, §6, §7"}, "Macrophages": {"tested_on": "Macrophages", "experiment": "In vivo Cre mRNA delivery efficiency in immune cells after tail vein injection, flow cytometry of spleen cells", "conditions": "Cre mRNA LNP, tail vein injection 0.5 mg/kg, 48 h after administration, tdTomato positive", "procedure": "as §5, §6, §7"}, "Monocytes": {"tested_on": "Monocytes", "experiment": "In vivo Cre mRNA delivery efficiency in immune cells after tail vein injection, flow cytometry of spleen cells", "conditions": "Cre mRNA LNP, tail vein injection 0.5 mg/kg, 48 h after administration, tdTomato positive", "procedure": "as §5, §6, §7"}}, "data": [{"smiles": "CCCCCCCCC(CC)OC(=O)CCCCCCCN(CCCCCOCC(=O)OC(CCCCCCCC)CCCCCCCC)CCCn1ccnc1", "note": "(stereo not drawn)", "values": [{"measurement": "Mean fluorescence intensity (p/s)", "setting": "[1]", "result": "3.02E+04", "unit": "p/s"}, {"measurement": "Relative fluorescence intensity", "setting": "[1]", "result": 1.46}, {"measurement": "PDI", "setting": "[2]", "result": 0.10}, {"measurement": "Size (nm)", "setting": "[2]", "result": 78.1, "unit": "nm"}, {"measurement": "Encapsulation efficiency (%)", "setting": "[3]", "result": 99.4, "unit": "%"}, {"measurement": "Fluorescence intensity relative to that of the lipid nanoparticle composition corresponding to comparative compound 2", "setting": "[4]", "result": 13, "unit": "times"}, {"measurement": "Mean fluorescence intensity (p/s)", "setting": "[4]", "result": "3.72E+04", "unit": "p/s"}, {"measurement": "Relative fluorescence intensity", "setting": "[4]", "result": 13.38}, {"measurement": "Relative protein expression level Liver", "setting": "Liver", "result": 1.4}, {"measurement": "Relative protein expression level Spleen", "setting": "Spleen", "result": 2.0}]}, {"smiles": "CCCCCCCCC(CCCCCC)C(=O)OCCCCCCN(CCCCCCOC(=O)C(CCCCCC)CCCCCCCC)CCCn1ccnc1", "note": "(stereo not drawn)", "values": [{"measurement": "Mean fluorescence intensity (p/s)", "setting": "[1]", "result": "3.00E+04", "unit": "p/s"}, {"measurement": "Relative fluorescence intensity", "setting": "[1]", "result": 1.46}, {"measurement": "PDI", "setting": "[2]", "result": 0.19}, {"measurement": "Size (nm)", "setting": "[2]", "result": 69.7, "unit": "nm"}, {"measurement": "Encapsulation efficiency (%)", "setting": "[3]", "result": 97.4, "unit": "%"}, {"measurement": "Mean fluorescence intensity (p/s)", "setting": "[4]", "result": "8.55E+03", "unit": "p/s"}, {"measurement": "Relative fluorescence intensity", "setting": "[4]", "result": 3.07}, {"measurement": "Relative protein expression level Liver", "setting": "Liver", "result": 1.0}, {"measurement": "Relative protein expression level Spleen", "setting": "Spleen", "result": 1.0}, {"measurement": "Proportion of positive cells (%)", "setting": "T cells", "result": 1.6, "unit": "%"}, {"measurement": "Proportion of positive cells (%)", "setting": "NK cells", "result": 5.0, "unit": "%"}, {"measurement": "Proportion of positive cells (%)", "setting": "Dendritic cells", "result": 4.2, "unit": "%"}, {"measurement": "Proportion of positive cells (%)", "setting": "Macrophages", "result": 5.9, "unit": "%"}, {"measurement": "Proportion of positive cells (%)", "setting": "Monocytes", "result": 12.3, "unit": "%"}]}, {"smiles": "CCCCCCCCC(CCCCCC)C(=O)OCCCCCCN(CCCOCCOC(=O)C(CCCCCC)CCCCCCCC)CCCn1ccnc1", "note": "(stereo not drawn)", "values": [{"measurement": "Mean fluorescence intensity (p/s)", "setting": "[1]", "result": "2.06E+04", "unit": "p/s"}, {"measurement": "Relative fluorescence intensity", "setting": "[1]", "result": 1.00}, {"measurement": "PDI", "setting": "[2]", "result": 0.07}, {"measurement": "Size (nm)", "setting": "[2]", "result": 79.4, "unit": "nm"}, {"measurement": "Encapsulation efficiency (%)", "setting": "[3]", "result": 95.5, "unit": "%"}, {"measurement": "Fluorescence intensity relative to that of the lipid nanoparticle composition corresponding to comparative compound 2", "setting": "[4]", "result": 9, "unit": "times"}, {"measurement": "Mean fluorescence intensity (p/s)", "setting": "[4]", "result": "2.59E+04", "unit": "p/s"}, {"measurement": "Relative fluorescence intensity", "setting": "[4]", "result": 9.33}, {"measurement": "Relative protein expression level Liver", "setting": "Liver", "result": 0.6}, {"measurement": "Relative protein expression level Spleen", "setting": "Spleen", "result": 1.7}, {"measurement": "Proportion of positive cells (%)", "setting": "T cells", "result": 2.5, "unit": "%"}, {"measurement": "Proportion of positive cells (%)", "setting": "NK cells", "result": 14.1, "unit": "%"}, {"measurement": "Proportion of positive cells (%)", "setting": "Dendritic cells", "result": 7.7, "unit": "%"}, {"measurement": "Proportion of positive cells (%)", "setting": "Macrophages", "result": 10.2, "unit": "%"}, {"measurement": "Proportion of positive cells (%)", "setting": "Monocytes", "result": 16.8, "unit": "%"}]}]}
